This note sets out measurements from ChEMBL document CHEMBL5034046, “Discovery of Small-Molecule CD33 Pre-mRNA Splicing Modulators” (ACS Med Chem Lett, 2022).

Protein sequences, listed by entry. Tags and fused reporters are not part of them. Residues count along the entry.
UniProt Q8NBP7, 31-152 limits assumed: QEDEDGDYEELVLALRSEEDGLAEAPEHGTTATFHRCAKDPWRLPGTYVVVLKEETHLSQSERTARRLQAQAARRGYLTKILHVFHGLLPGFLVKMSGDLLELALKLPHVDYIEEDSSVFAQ
UniProt Q8NBP7, 153-692 limits assumed: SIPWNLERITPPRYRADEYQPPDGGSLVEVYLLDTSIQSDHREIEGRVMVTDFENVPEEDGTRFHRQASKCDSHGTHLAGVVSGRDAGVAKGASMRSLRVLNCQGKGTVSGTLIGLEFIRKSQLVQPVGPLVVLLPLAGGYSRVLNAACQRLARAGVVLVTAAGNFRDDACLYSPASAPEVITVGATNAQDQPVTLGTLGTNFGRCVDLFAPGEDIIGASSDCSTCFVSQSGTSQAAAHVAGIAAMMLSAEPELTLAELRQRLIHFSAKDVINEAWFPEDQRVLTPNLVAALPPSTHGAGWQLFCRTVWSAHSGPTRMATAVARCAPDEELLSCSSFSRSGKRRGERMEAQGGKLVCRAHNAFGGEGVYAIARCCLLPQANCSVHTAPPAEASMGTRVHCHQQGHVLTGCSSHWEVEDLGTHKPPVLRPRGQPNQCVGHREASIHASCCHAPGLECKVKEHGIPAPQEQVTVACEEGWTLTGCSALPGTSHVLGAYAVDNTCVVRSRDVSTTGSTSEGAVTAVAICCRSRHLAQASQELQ

Structures are written as SMILES.

This experiment concerns the target Proprotein convertase subtilisin/kexin type 9 (Homo sapiens, UniProt Q8NBP7). The experiment in a line: Inhibition of PCSK9 translation in human THP-1 cells by AlphaLISA assay. The class given is cell-based. Background: Bead proximity is the source of the signal in Alpha formats.

Usually IC50 stands for the concentration that gives 50% inhibition. Read a high IC50 as a need for much substance. As for `O=C(c1ccc(-n2nnc3cccnc32)cc1)N(c1ncccc1Cl)[C@@H]1CCCNC1`, the IC50 stood at 750 nM. For `Cc1cnc2c(c1)nnn2-c1ccc(C(=O)N(c2ncccc2Cl)[C@@H]2CCCNC2)cc1` the value was 780 nM.
